We go through 1 molecule from patent US20240058240A1, “COMPOUNDS AS SELF-TANNING SUBSTANCES AND TANNING COMPOSITIONS THEREOF” (CHEMCOM S.A., priority 2020, published 2024).

Sequences of proteins named here, by UniProt entry; tags and fusion partners are left off.
UniProt O76099, whole entry: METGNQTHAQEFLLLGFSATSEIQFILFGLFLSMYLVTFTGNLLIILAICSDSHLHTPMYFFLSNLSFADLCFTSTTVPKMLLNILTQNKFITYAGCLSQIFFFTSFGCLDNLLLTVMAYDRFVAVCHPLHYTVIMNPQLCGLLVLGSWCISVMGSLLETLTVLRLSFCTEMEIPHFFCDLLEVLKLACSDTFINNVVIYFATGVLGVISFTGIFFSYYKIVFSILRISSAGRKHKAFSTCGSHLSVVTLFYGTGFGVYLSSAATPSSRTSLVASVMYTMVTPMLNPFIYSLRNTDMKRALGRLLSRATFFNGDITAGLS

The target in this assay is OR7C1 (Homo sapiens, UniProt O76099). Nature of the assay: Luciferase-based CRE gene reporter assay, dose-response on OR7C1. Particulars: negative logarithm of the EC50 in Moles; semi-logarithmic dilutions from 1 mM to 316 nM on OR7C1.

The structures appear in SMILES notation.

As to `C[C@H](CO)C1=C2C(C)(C)[C@H]3CC[C@@]2(C3)C(C)(C)CC1`, the “-LogEC50 (average n > 3)” value is 4.3.
